Assay results: patent US20080176810A1, “Use of 3, 4', 5-Trihydroxy-Stilbene-3-Beta-D-glucoside in Prepartion of Medicines For Treating and/or Preventing Ischemic Heart Disease” (SHENZHEN NEPTUNUS PHARMACEUTICAL CO., LTD., priority 2004, published 2008)

Assay: Pharmacokinetics of single-dose iv in Beagle dogs;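 also: plasma levels in healthy adult Beagle dogs, five per dose group, after slow forelimb iv injection over 5 min, parameters from non-compartmental statistical moment analysis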
Conditions: 30 mg/kg iv

3,4′,5-trihydroxy-stilbene-3-β-D-glucoside [TSG]
maximum concentration in plasma: around 0.25 mmol/L
